## Yeast mating assay B: variants of the scFv Ab-14

Reference: Li et al. 2023, doi:10.1038/s41467-023-39022-2. File: FLAb, binding data.

Target: peptide PDVDLGDISGINAS, taken from heptad repeat 2 (HR2) of SARS-CoV-2 spike.

Ab-14 is the parent antibody, in scFv form: VH, then the linker GGGGSGGGGSGGGGS, then VL. The light chain is unchanged in all variants.
VH: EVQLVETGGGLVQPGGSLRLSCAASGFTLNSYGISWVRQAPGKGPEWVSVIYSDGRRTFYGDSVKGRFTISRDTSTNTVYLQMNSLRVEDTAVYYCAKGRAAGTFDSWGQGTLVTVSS
VL: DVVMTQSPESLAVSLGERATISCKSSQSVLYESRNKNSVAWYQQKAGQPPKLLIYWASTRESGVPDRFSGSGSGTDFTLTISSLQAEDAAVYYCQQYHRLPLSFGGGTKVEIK

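Phage display of a naive human antibody library on the peptide gave the parent. Designed CDR sequences, proposed from the first random library and measured here. Group labels follow the data file (En: ensemble of fine-tuned language models; HC: hill climbing; Gen: genetic algorithm; Gibbs: Gibbs sampling; a sequence that several methods proposed may carry one label only). In AlphaSeq, yeast of one mating type display the scFv and yeast of the other type display the target. Binding brings cells together so that they mate, and sequencing counts the barcode pairs among the diploids. Each replicate has its own calibration line, from reference interactions of the BCL2 family. Mating was done six times.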

Variants are written as CDR1, CDR2 and CDR3 of the heavy chain (limits as in the source). Parent: GFTLNSYGIS, VIYSDGRRTFYGDSVK, GRAAGTFDS.
This list holds designs with more than six substitutions.
The Kd shown is the geometric mean over detected replicates; a lower Kd is a better binder.
An entry "nd" has no value in the source: the pair was not observed among the diploids in any replicate. This suggests poor binding but is not conclusive.
Values of this round are not directly comparable with the first-round values of the same sequences.
Background: pairings of all heavy chain designs with three empty control strains gave a value in 1% of cases (median 120 nM, 5th percentile 7.0 nM). Values in that range, when seen in few replicates, are hard to tell from nonspecific mating. The control count says in how many pairings with the empty strains this scFv gave a signal.
The parent sequence was in this pool as ten entries: three were never detected, three once, and four in most replicates, with averages from 2.2 nM to 240 nM.
The authors' rule: three or more of the six replicates give a measured affinity, fewer mean a poor binder.

- GFDLNEYGIS | VIYADGRRTAYVDDVK | GENAGTFDV [En_Gen] = 550 pM (6 of 6 replicates; controls 0 of 18)
- GFDLNEYGIS | VIYADGVRTYYADDVK | GNNAGTFDV [En_Gen] = 750 pM (6 of 6 replicates; controls 1 of 18)
- GFDLDEYGIS | VIYADGGRVSYAQNVK | GLVGKGGVV [En_Gibbs] = nd (0 of 6 replicates; controls 0 of 18)
- GFDLDEYGIS | VIYADGQRTAYADDVK | GENAGTFDT [En_Gen] = 1.2 nM (6 of 6 replicates; controls 0 of 18)
- GFDLNEYGIS | VIYADGRRTFYIDSVK | GEQAGTFDM [En_HC] = 550 pM (6 of 6 replicates; controls 1 of 18)
- GFNLEEYGIS | VIYADGFRAAYKQKVK | GQDGLVGMD [En_Gibbs] = nd (0 of 6 replicates; controls 0 of 18)
- GFDIEEYGIS | VIYADGSRTSYSDSVK | SGYTFNMDL [En_Gibbs] = 15 nM (2 of 6 replicates; controls 0 of 18)
- GFDLDEYGIS | VIYADGKRTAYANSVK | GENAGTFDV [En_Gen] = 400 pM (6 of 6 replicates; controls 0 of 18)
- GFDLNEYGIS | VIYADGLRTYYADSVK | GNVAGTFDI [En_Gen] = 170 pM (6 of 6 replicates; controls 1 of 18)
- GFDLNEYGIS | VIYADGRRTFYADSVK | GHVAGTFVQ [En_HC] = 1.8 nM (6 of 6 replicates; controls 2 of 18)
- GFNLDEYGIS | VIYADGRRTFYQDSVK | GEIAGTFDF [En_HC] = 610 pM (6 of 6 replicates; controls 2 of 18)
- GFDLNEYGIS | VIYADGKRTAYADSVK | GNVAGTFDM [En_Gen] = 570 pM (6 of 6 replicates; controls 0 of 18)
- GFNLNEYGIS | VIYADGQRLSYDDKVK | GDIGGTFND [En_Gibbs] = 13 nM (6 of 6 replicates; controls 0 of 18)
- GGDLNEYGIS | VIYADGVRKNYIDSVK | GQTGIDLNI [En_Gibbs] = 730 nM (1 of 6 replicates; controls 0 of 18)
- GFKINEYGIS | VIYADGQRVAYTNSFK | GTQAGMFFN [En_Gibbs] = nd (0 of 6 replicates; controls 0 of 18)
- GFDLDEYGIS | VIYADGVRTAYADSVK | GQNAGTFDV [En_Gen] = 480 pM (6 of 6 replicates; controls 0 of 18)
- GFDLNEYGIS | VIYADGRRTFYTDSVK | GEVAGTFDF [En_HC] = 770 pM (6 of 6 replicates; controls 1 of 18)
- GFDLDEYGIS | VIYADGKRTAYADSVK | GNNAGTFDQ [En_Gen] = 130 pM (6 of 6 replicates; controls 0 of 18)
- GFDLNEYGIS | VIYADGMRTAYQDSVK | GNVAGTFDM [En_Gen] = 700 pM (6 of 6 replicates; controls 0 of 18)
- GFDLNEYGIS | VIYADGMRTAYKDSVK | GNVAGTFDV [En_Gen] = 670 pM (6 of 6 replicates; controls 0 of 18)
- GFDINEYGIS | VIYADGRRTFYADSVK | GNQAGTFDV [En_HC] = 380 pM (6 of 6 replicates; controls 0 of 18)
- GFNLNEYGIS | VIYADGMRTFYTDSVK | GETAGTFIQ [En_HC] = 1.2 nM (6 of 6 replicates; controls 0 of 18)
- GFDLNEYGIS | VIYADGRRTFYADSVK | GNQAGTFII [En_HC] = 71 nM (6 of 6 replicates; controls 3 of 18)
- GFDLDNEGIS | VIYADGIRTQYQDSVK | GQNVATFDV [En_Gibbs] = nd (0 of 6 replicates; controls 0 of 18)
- GFDLNEYGIS | VIYADGMRTAYSDSVK | GNVAGTFDA [En_Gen] = 360 pM (6 of 6 replicates; controls 0 of 18)
- GFDLDEYGIS | VIYADGQRTAYANSVK | GNVAGTFDV [En_Gen] = 510 pM (6 of 6 replicates; controls 0 of 18)
- GFDLSEYGIS | VIYADGRRTFYTDSVK | GEEAGTFDE [En_HC] = 610 pM (6 of 6 replicates; controls 0 of 18)
- GFDLEEYGVS | VIYADGIRFAYAQDVK | GQAAGAFDL [En_Gibbs] = 7.8 nM (6 of 6 replicates; controls 0 of 18)
- GFDLNEYGIS | VIYADGMRTFYADSVK | GELAGTFDV [En_HC] = 1.0 nM (6 of 6 replicates; controls 0 of 18)
- GFSLDEYGIS | VIYADGLRSKYADKVK | GELSQKGDT [En_Gibbs] = nd (0 of 6 replicates; controls 0 of 18)
- GFSIDEYGIS | VIYADGLRQFYTNAVK | GMAAGTLDM [En_Gibbs] = nd (0 of 6 replicates; controls 0 of 18)
- GFNLDEYGIS | VIYADGARTAYANKVK | GGNWWISVN [En_Gibbs] = nd (0 of 6 replicates; controls 0 of 18)
- GFDLNEYGIS | VIYADGMRTHYTDSVK | GNEAGTFDI [En_HC] = 7.9 nM (6 of 6 replicates; controls 2 of 18)
- GFDLNEYGIS | VIYADGRRTYYSDSVK | GEAAGTFVI [En_HC] = 370 nM (3 of 6 replicates; controls 0 of 18)
- GFDLNEYGIS | VIYADGVRKAYADDVK | GENAGTFDV [En_Gen] = 120 pM (6 of 6 replicates; controls 0 of 18)
- GFDLNEYGIS | VIYADGVRTAYIDSVK | GENAGTFDI [En_Gen] = 300 pM (6 of 6 replicates; controls 0 of 18)
- GFDLNEYGIS | VIYADGHRSFYIDTVK | GQQAGIFNV [En_Gibbs] = 72 nM (5 of 6 replicates; controls 1 of 18)
- GFNLNEYGIS | VIYADGVRTFYADSVK | GQVAGTFDM [En_HC] = 240 pM (6 of 6 replicates; controls 0 of 18)

Top 5 of the variants detected in all replicates, tightest first:

{"CDR-H1": "GFDLNEYGIS", "CDR-H2": "VIYADGVRKAYADDVK", "CDR-H3": "GENAGTFDV", "group": "En_Gen", "Kd (apparent)": "120 pM", "seen in": "6 of 6", "empty controls": "0 of 18"}
{"CDR-H1": "GFDLDEYGIS", "CDR-H2": "VIYADGKRTAYADSVK", "CDR-H3": "GNNAGTFDQ", "group": "En_Gen", "Kd (apparent)": "130 pM", "seen in": "6 of 6", "empty controls": "0 of 18"}
{"CDR-H1": "GFDLNEYGIS", "CDR-H2": "VIYADGLRTYYADSVK", "CDR-H3": "GNVAGTFDI", "group": "En_Gen", "Kd (apparent)": "170 pM", "seen in": "6 of 6", "empty controls": "1 of 18"}
{"CDR-H1": "GFNLNEYGIS", "CDR-H2": "VIYADGVRTFYADSVK", "CDR-H3": "GQVAGTFDM", "group": "En_HC", "Kd (apparent)": "240 pM", "seen in": "6 of 6", "empty controls": "0 of 18"}
{"CDR-H1": "GFDLNEYGIS", "CDR-H2": "VIYADGVRTAYIDSVK", "CDR-H3": "GENAGTFDI", "group": "En_Gen", "Kd (apparent)": "300 pM", "seen in": "6 of 6", "empty controls": "0 of 18"}